Test results as given in patent US20030032774A1, “Novel opioid peptides for the treatment of pain” (priority 1994, published 2003).

System: hot-plate response in mice
Details: mouse, in vivo

## CN1CC[C@]23c4c5ccc(O)c4O[C@H]2[C@@H](O)C=C[C@H]3[C@H]1C5 [morphine, reference compound]
  reaction time in the hot plate test: approximately 17 seconds
